Earlier results on one substance are cited in patent US8741373B2, “Compositions containing non-polar compounds” (Virun, Inc., priority 2010, dated 2014).

The conditions of this data set: reported HLB values of exemplary surfactants and co-surfactants (Table 1A).

Regarding “Tocopherol polyethylene glycol succinate”, the HLB is 12-18.
